Our source for the IC50 values is BindingDB's records for doi:10.1016/j.vascn.2014.07.002 (University of Oxford, 2014).

Amino acid sequences for entries named in this document (tags omitted). A change or cut given only in a name is not applied to a line headed by its entry.
UniProt Q12809: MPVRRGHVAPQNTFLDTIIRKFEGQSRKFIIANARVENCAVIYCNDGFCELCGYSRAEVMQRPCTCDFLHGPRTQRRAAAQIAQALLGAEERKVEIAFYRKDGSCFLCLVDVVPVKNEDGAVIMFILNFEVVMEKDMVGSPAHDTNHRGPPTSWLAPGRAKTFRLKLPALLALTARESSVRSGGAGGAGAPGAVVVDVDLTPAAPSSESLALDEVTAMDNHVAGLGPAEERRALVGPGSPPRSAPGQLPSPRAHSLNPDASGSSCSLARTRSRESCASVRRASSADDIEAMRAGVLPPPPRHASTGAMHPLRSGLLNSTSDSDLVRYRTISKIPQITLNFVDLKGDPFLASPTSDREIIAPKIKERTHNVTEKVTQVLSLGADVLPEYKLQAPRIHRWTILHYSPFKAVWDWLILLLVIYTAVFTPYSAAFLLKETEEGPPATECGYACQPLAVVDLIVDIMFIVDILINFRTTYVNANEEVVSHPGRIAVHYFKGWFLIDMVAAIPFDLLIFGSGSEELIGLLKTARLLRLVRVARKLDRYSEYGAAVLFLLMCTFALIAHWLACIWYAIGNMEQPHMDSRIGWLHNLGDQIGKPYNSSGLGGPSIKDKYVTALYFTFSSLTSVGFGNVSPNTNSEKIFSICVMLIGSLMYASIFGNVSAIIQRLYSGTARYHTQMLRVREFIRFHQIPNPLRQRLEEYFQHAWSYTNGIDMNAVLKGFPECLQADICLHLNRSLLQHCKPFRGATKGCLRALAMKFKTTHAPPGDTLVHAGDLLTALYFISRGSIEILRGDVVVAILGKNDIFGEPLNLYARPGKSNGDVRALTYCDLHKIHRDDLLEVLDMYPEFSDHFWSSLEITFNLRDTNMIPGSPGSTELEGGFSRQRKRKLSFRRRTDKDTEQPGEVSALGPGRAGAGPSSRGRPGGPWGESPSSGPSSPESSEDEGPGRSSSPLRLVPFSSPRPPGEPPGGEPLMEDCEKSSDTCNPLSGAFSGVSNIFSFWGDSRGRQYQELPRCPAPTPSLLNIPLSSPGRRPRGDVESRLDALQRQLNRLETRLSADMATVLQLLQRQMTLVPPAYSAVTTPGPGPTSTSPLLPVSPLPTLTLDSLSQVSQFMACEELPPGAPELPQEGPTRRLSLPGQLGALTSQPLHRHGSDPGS

This series concerns the target Potassium voltage-gated channel subfamily H member 2 (Homo sapiens, UniProt Q12809). In words: Inhibition of rapid delayed inward rectifying potassium current (IKr) measured using manual patch clamp assay. A general note: The patch-clamp technique gives a direct electrical read-out from membranes.

SMILES strings stand for the structures.

For orientation: IC50 means the concentration needed to halve the response being measured. Consider `CO[C@H]1C[C@@H]2CC[C@@H](C)[C@@](O)(O2)C(=O)C(=O)N2CCCC[C@H]2C(=O)O[C@H]([C@H](C)C[C@@H]2CC[C@@H](OCCO)[C@H](OC)C2)CC(=O)[C@H](C)/C=C(\C)[C@@H](O)[C@@H](OC)C(=O)[C@H](C)C[C@H](C)/C=C/C=C/C=C/1C` [CHEBI:68478], for which the IC50 turned out to be 501 µM.
